Test results: ChEMBL document CHEMBL1147560, “Thioxanthene-derived analogs as sigma(1) receptor ligands” (Bioorg Med Chem Lett, 2004)

Sequences of proteins named here, by UniProt entry; tags and fusion partners are left off.
UniProt Q99720, whole entry: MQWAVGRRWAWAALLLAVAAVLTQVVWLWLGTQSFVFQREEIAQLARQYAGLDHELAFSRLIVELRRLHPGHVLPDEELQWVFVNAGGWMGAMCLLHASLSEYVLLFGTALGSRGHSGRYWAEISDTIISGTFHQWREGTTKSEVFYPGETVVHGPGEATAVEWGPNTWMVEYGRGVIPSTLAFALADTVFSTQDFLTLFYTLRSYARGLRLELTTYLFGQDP

Biological target: Sigma non-opioid intracellular receptor 1 (Homo sapiens, UniProt Q99720)
Experiment: Binding affinity for Sigma receptor type 1,using [3H](+)-pentazocine as radioligand

| Ki [pM] | Structure (SMILES) |
| --- | --- |
| 1300 | C(CCCNCCc1ccccc1)=C(c1ccccc1)c1ccccc1 |
| 130 | CC1CCN(CCCC=C(c2ccccc2)c2ccccc2)CC1 |
